Reference: ChEMBL document CHEMBL5726224, “Aminoester derivatives” (2017)

By UniProt entry, the sequences of proteins in these tests, tags left out.
UniProt P20309, whole entry: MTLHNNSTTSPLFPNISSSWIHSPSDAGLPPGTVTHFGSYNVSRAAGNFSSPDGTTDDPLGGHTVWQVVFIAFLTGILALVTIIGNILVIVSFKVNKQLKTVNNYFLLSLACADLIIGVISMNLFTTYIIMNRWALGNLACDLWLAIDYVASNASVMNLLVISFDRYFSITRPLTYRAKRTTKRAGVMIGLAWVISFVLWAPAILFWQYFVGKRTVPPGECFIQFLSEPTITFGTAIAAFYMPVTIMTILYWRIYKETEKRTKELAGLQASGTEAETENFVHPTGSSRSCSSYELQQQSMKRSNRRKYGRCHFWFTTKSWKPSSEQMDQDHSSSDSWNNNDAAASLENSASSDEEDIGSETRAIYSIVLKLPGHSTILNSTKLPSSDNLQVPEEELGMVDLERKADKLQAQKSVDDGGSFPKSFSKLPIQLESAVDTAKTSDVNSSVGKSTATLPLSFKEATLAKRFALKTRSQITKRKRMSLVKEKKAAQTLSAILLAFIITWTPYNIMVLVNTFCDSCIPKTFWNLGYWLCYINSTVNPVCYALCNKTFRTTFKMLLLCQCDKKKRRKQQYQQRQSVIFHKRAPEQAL

Molecular target: Muscarinic acetylcholine receptor M3 (Homo sapiens, UniProt P20309)
Assay: The assay is carried out in 96-well polypropylene plates in a volume of 250 μl. […] The final assay concentration of DMSO is 0.5% (v/v). The plates are sealed and incubated for 2 h at room temperature on an orbital shaker (slow speed). Membranes are harvested onto 96-well unifilter GF/C filter plates pre-treated with 0.5% polyethyleneimine (v/v), using a filter manifold, washed four times with 200 μl of assay buffer. The plates are dried before addition of 50 μl of microscint-0, sealed then read in a Trilux Microbeta scintillation counter. IC50 values are determined from competition curves using a non-linear curve fitting program. Ki values are calculated from IC50 values by the Cheng and Prusoff equation.

Question: With COc1ccc([C@H](Cc2c(Cl)c[n+]([O-])cc2Cl)OC(=O)c2ccc(CNC(C(=O)OC[C@H]3CCN3C)c3ccccc3)s2)cc1OC (stereo partly drawn) as the compound, how does the IC50 read?
Answer: < 1 nM

Question: With COc1ccc([C@H](Cc2c(Cl)c[n+]([O-])cc2Cl)OC(=O)c2ccc(CNC(C(=O)OCC3CCN(C)CC3)c3ccccc3)s2)cc1OC (stereo partly drawn) as the compound, how does the Ki read?
Answer: 0.7 nM

Question: How did the Ki turn out when COc1ccc([C@H](Cc2c(Cl)c[n+]([O-])cc2Cl)OC(=O)c2ccc(CNC(CO)(C(=O)OCC3CCN(C)CC3)c3ccccc3)s2)cc1OC (stereo partly drawn) was run?
Answer: 0.85 nM

Question: For COc1ccc([C@H](Cc2c(Cl)c[n+]([O-])cc2Cl)OC(=O)c2ccc(CNC(C(=O)OC[C@H]3CCCN3C)c3ccccc3)s2)cc1OC (stereo partly drawn), which IC50 is on record?
Answer: < 1 nM

Question: Which IC50 does the source give for COc1ccc(C(Cc2c(Cl)c[n+]([O-])cc2Cl)OC(=O)c2ccc(CNC(C(=O)OCC3CCN(C)CC3)c3ccccc3)s2)cc1OCC1CC1 (stereo not drawn) here?
Answer: < 1 nM

Question: How did the IC50 turn out when COc1ccc([C@H](Cc2c(Cl)c[n+]([O-])cc2Cl)OC(=O)c2ccc(CNC(C(=O)OCC3(F)CCN(C)CC3)c3ccccc3)s2)cc1OC (stereo partly drawn) was run?
Answer: < 1 nM

Question: For COc1ccc([C@H](Cc2c(Cl)c[n+]([O-])cc2Cl)OC(=O)c2ccc(CNC(C(=O)OC[C@@H]3CCCN3C)c3ccccc3)s2)cc1OC (stereo partly drawn), which IC50 is on record?
Answer: < 1 nM

Question: How did the IC50 turn out when COc1ccc([C@H](Cc2c(Cl)c[n+]([O-])cc2Cl)OC(=O)c2ccc(CNC(C(=O)OC[C@@H]3CCN3C)c3ccccc3)s2)cc1OC (stereo partly drawn) was run?
Answer: < 1 nM
